Sequences of proteins named here, by UniProt entry; tags and fusion partners are left off.
UniProt P23977, whole entry: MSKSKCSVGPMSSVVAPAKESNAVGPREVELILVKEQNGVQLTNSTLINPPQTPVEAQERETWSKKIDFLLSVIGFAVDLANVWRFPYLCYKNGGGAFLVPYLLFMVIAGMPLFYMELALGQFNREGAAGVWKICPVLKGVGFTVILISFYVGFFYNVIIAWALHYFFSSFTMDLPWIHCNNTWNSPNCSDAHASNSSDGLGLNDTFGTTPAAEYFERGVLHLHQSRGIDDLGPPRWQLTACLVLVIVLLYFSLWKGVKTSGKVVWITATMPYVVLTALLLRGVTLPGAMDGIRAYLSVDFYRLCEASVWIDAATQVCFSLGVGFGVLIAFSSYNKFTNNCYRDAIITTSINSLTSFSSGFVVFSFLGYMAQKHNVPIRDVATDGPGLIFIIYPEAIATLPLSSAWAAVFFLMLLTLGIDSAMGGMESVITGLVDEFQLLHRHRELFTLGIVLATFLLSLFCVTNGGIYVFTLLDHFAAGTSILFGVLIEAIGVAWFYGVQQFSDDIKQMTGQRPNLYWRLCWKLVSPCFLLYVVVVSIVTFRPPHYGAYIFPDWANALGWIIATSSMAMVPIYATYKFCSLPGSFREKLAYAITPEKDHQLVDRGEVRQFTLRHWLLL

In US8252796B2, “1-butyl-2-hydroxyaralkyl piperazine derivatives and the uses as anti-depression medicine thereof” (CSPC Zhonggi Pharmaceutical Technology (Shijiazhuang) Co. …, priority 2008, dated 2012):

Molecular target: T1, reuptake of [3H]DA by striatum synaptosomes (Rattus norvegicus, UniProt P23977)
T1 construct: from tissue; host or cells: rat striatum synaptosomes
Assay: IC50 for inhibiting reuptake of [3H]DA by brain synaptosomes (Example 36)
Format: biochemical
Procedure: Male SD rats were sacrificed by cervical dislocation and then the brains thereof were taken out rapidly by decollation and placed on ice. Related rain tissues (for [^3H]5-HT and [^3H]NA reuptake experiment, prefrontal cortex was taken; for [^3H]DA reuptake experiment, striatum was taken) were separated and weighed. 10 times (V/W) of 0.32 mol/L ice-cold sucrose solution was added and was homogenized electrically with glass-teflon. The homogenate was centrifugated at 4° C. at 1000 g×10 min. Then the supernatant was taken and centrifugated at 4° C. at 17000 g×20 min. The precipitation was suspended in 30 volume of KRH Buffer (125 mM NaCl, 4.8 mM KCl, 1.2 mM CaCl2, 1.2 mM MgSO4, 1.0 mM KH2PO4, 22 mM NaHCO3, 25 mM HEPES, 10 mM Glucose, 10 μM Pargyline, 0.2 mg/ml Ascorbic Acid) and then was preserved in an ice bath for use. (for NA reuptake experiment, the cortex needed was suspended in 20 volume of KRH Buffer)
1. Preparation of Rat Brain Synaptosomes (the Same as Example 35)
The compounds were used for the studies on inhibition effect (IC50) on reuptake of [^3H]5-HT/NA/DA. […] Each concentration was determined by the average of double twin tubes and the test was repeated for more than 3 times. […]
Sigmoidal curve fitting was performed for the data obtained from all of the test drugs by Origin 6.1, and the IC50 value was calculated.

Compound: COc1ccc(C(CN(C)C)C2(O)CCCCC2)cc1 (stereo not shown) [venlafaxine, reference compound]
- IC50: 3.07 µM
